Experimental data taken from paper PMC7337497 (The Journal of Cell Biology, 2020).

Target: the molecule itself
Assay: SEC-MALS; static light scattering: 90 µl of 10 µM (1.5 mg/ml) ATG12–ATG5-ATG16L1-GFP on Superose 6 Increase 10/300 GL coupled to a TREOS II instrument; 25 mM Hepes pH 7.5, 300 mM NaCl, 1 mM DTT; dimer of the three-subunit complex

B1: ATG12–ATG5-ATG16L1-GFP complex (E3-GFP) (complex, human)
chain 1: MAEEPQSVLQLPTSIAAGGEGLTDVSPETTTPEPPSSAAVSPGTEEPAGDTKKKIDILLKAVGDTPIMKTKKWAVERTRTIQGLIDFIKKFLKLVASEQLFIYVNQSFAPSPDQEVGTLYECFGSDGKLVLHYCKSQAWG
chain 2: MTDDKDVLRDVWFGRIPTCFTLYQDEITEREAEPYYLLLPRVSYLTLVTDKVKKHFQKVMRQEDISEIWFEYEGTPLKWHYPIGLLFDLLASSSALPWNITVHFKSFPEKDLLHCPSKDAIEAHFMSCMKEADALKHKSQVINEMQKKDHKQLWMGLQNDRFDQFWAINRKLMEYPAEENGFRYIPFRIYQTTTERPFIQKLFRPVAADGQLHTLGDLLKEVCPSAIDPEDGEKKNQVMIHGIEPMLETPLQWLSEHLSYPDNFLHISIIPQPTD
chain 3: MSSGLRAADFPRWKRHISEQLRRRDRLQRQAFEEIILQYNKLLEKSDLHSVLAQKLQAEKHDVPNRHEISPGHDGTWNDNQLQEMAQLRIKHQEELTELHKKRGELAQLVIDLNNQMQRKDREMQMNEAKIAECLQTISDLETECLDLRTKLCDLERANQTLKDEYDALQITFTALEGKLRKTTEENQELVTRWMAEKAQEANRLNAENEKDSRRRQARLQKELAEAAKEPLPVEQDDDIEVIVDETSDHTEETSPVRAISRAATKRLSQPAGGLLDSITNIFGRRSVSSFPVPQDNVDTHPGSGKEVRVPATALCVFDAHDGEVNAVQFSPGSRLLATGGMDRRVKLWEVFGEKCEFKGSLSGSNAGITSIEFDSAGSYLLAASNDFASRIWTVDDYRLRHTLTGHSGKVLSAKFLLDNARIVSGSHDRTLKLWDLRSKVCIKTVFAGSSCNDIVCTEQCVMSGHFDKKIRFWDIRSESIVREMELLGKITALDLNPERTELLSCSRDDLLKVIDLRTNAIKQTFSAPGFKCGSDWTRVVFSPDGSYVAAGSAEGSLYIWSVLTGKVEKVLSKQHSSSINAVAWSPSGSHVVSVDKGCKAVLWAQY
modifications: conjugated to a lysine residue in ATG5 (ATG12–ATG5 conjugate) | a lysine residue conjugated to ATG12
notes: ATG12, human; synthetic gene codon optimised for Sf9; conjugated to ATG5 by coexpressed ATG7 and ATG10; ATG5, human; ATG16L1 isoform β, human; Dimer with two copies of each subunit by static light scattering; no TEV cleavage is described for this complex; also called GFP-tagged E3; E3 complex; source: Sf9, coexpressed from one poly-cistronic construct with ATG7 and ATG10, purified (StrepTactin, …)
- stoichiometry N: 2
